Bioassay records from PubChem BioAssay.
ERp5 block: inhibitors of human ERp5; AID 651711; ERp5 insulin aggregation, absorbance 650 nm, 90 min; Q15084; 0.05% of 350,000 active; inhibition, % at 9.99 µM;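 active = mean replicate inhibition above about 25%, with every replicate also reaching it, limit read from the data, passing the limit was not always enough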
S100A4 MyoIIA: S100A4-myosin IIA interaction inhibition; 0.14% of 360,000 active; inhibition, % at 10.7 µM; AID 652163; S100A4/TAMRA-MyoIIA peptide fluorescence polarization;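 active = mean inhibition of at least 70% across replicates, with every replicate also reaching that level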
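Material: S100A4 monomer protein / Buffer or medium: 50 mM HEPES pH 7.2, 10 mM CaCl2, 100 mM KCl / Times: 5 min incubation before reading / Benchmarks: neutral control DMSO, positive control TFP / Reagent: labelled myosin peptide probe, 5 nM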
Yeast UUG start: alters start codon recognition fidelity in yeast | S. cerevisiae UUG-firefly luciferase reporter, luminescence/redox ratio | activity score, % at 18.7 µM | hit rate 0.13% among 350,000 | AID 602363;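 active means replicate mean at a twofold rise or more, about +100% in these data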;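 further: firefly luciferase made from a UUG start codon reports start codon fidelity; reporter light over untreated wells divided by growth signal over untreated wells; some hits fall short of that in this replicate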
PDI inh: PDI (human) enzyme inhibition; P07237; PDI insulin aggregation turbidity, A650, 90 min; inhibition, % at 10 µM; 0.052% of 350,000 active;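 active = mean inhibition across replicates of 30% or more, whatever share of single replicates reach that level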
SIRT5 inh: blocks human SIRT5 desuccinylation of peptide | Q9NXA8 | Purified SirT5, succinyl-peptide AMC, trypsin-coupled fluorescence | inhibition, % at 15 µM | 1.1% of 330,000 active; in the data active = inhibition above about 15%
FGF22 binding: FGF22 (human) thermal shift binding. Q9HCT0. AID 651658. recombinant FGF22 thermal shift, SYPRO orange fluorescence; percent of sucrose octasulfate shift, DMSO zero. 1.5% of 340,000 active. activity (Tm shift, normalised), % at 9.99 µM;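 active = mean Tm shift, scaled 0 neutral to 100 positive control, at about 1.3% or above, every replicate too, limit read from the data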
Numbers stand for hits; – = inactive; · = no result given. Most compounds without a hit are left out; they make up all but 2.2% or so of the library.

SMILES	ERp5 block	S100A4 MyoIIA	Yeast UUG start	PDI inh	SIRT5 inh	FGF22 binding
C[C@@H]1CN([C@@H](C)CO)C(=O)Cc2cc(NC(=O)CCN3CCOCC3)ccc2O[C@@H]1CN(C)C	–	128	–	·	–	–
C[C@H]1CN([C@@H](C)CO)C(=O)Cc2cc(NC(=O)Nc3ccc4c(c3)OCO4)ccc2O[C@H]1CN(C)CC1CCCCC1	–	–	–	·	–	–
C[C@H]1CN([C@@H](C)CO)C(=O)Cc2cc(NC(=O)CCN3CCOCC3)ccc2O[C@H]1CN(C)CC1CCCCC1	–	–	–	·	20	–
COc1ccc(S(=O)(=O)Nc2ccc3c(c2)C(=O)N([C@H](C)CO)C[C@H](C)[C@@H](CN(C)C(=O)CCC(F)(F)F)OCCCC[C@H](C)O3)cc1	–	–	–	·	–	–
C[C@@H]1CN([C@H](C)CO)C(=O)Cc2cc(NC(=O)Nc3ccc(C(F)(F)F)cc3)ccc2O[C@H]1CN(C)Cc1ccc2c(c1)OCO2	–	101	–	·	–	–
C[C@@H]1CN([C@@H](C)CO)C(=O)Cc2cc(NC(=O)Nc3ccc(C(F)(F)F)cc3)ccc2O[C@@H]1CN(C)Cc1ccc2c(c1)OCO2	–	–	–	·	–	–
C[C@@H]1CN([C@@H](C)CO)C(=O)Cc2cc(NC(=O)CCN3CCOCC3)ccc2O[C@@H]1CN(C)Cc1ccncc1	–	–	·	·	16	–
C[C@H](CO)N1C[C@H](C)[C@H](CN(C)Cc2ccc(C(=O)O)cc2)OCCCC[C@H](C)Oc2ccc(NC(=O)NC3CCCCC3)cc2C1=O	–	–	–	·	–	–
CO[C@H]1CN(C)C(=O)c2ccc(NC(=O)Nc3cccc(F)c3)cc2OC[C@H](C)N(C(=O)C2CC2)C[C@@H]1C	·	–	·	·	·	–
Cc1ccc(OCC(=O)Nc2ccc(N3CCN(S(C)(=O)=O)CC3)cc2)cc1	–	–	·	–	–	43
COc1ccc(NC(=O)Nc2ccc(CC(=O)O)cc2)cc1	–	–	·	–	–	43
COc1ccc(NC(=S)NNC(=O)c2ccc(S(=O)(=O)N3CCOCC3)cc2)cc1	–	–	–	–	–	1.4
O=C(O)Cc1ccc(NC(=O)Nc2ccc(Br)cc2)cc1	–	–	·	–	–	–
COc1ccc(C(=O)N[C@H](C(=O)Nc2ccc(S(=O)(=O)N3CCOCC3)cc2)C(C)C)cc1	–	–	·	–	·	–
CS(=O)(=O)N1CCN(c2ccc(NC(=O)COc3ccccc3)cc2)CC1	–	–	–	–	·	–
COc1ccc(CC(=O)Nc2ccc(S(=O)(=O)N3CCN(C)CC3)cc2)cc1	–	–	–	–	18	–
Cc1ccccc1S(=O)(=O)N1C[C@H](O)COC[C@H]2O[C@@H](CC(=O)N3CCN(C)CC3)CC[C@@H]21	–	–	–	·	–	–
O=C(Nc1ccc(F)cc1)N1CC(=O)N2[C@H](CO)[C@H](c3ccc(-c4ccccc4)cc3)[C@H]2C1	–	·	·	·	–	·
COc1ccc(NC(=O)N2CCN(S(C)(=O)=O)CC2)cc1	–	–	·	–	–	43
COc1ccc(NC(=O)N2CCN(C(=O)Nc3ccc(OC)cc3)CC2)cc1	–	–	–	–	–	–
O=C(Nc1ccc2c(c1)[C@@H]1C[C@H](CC(=O)N3CCOCC3)O[C@@H](CO)[C@@H]1O2)NC1CCCCC1	–	–	–	·	–	–
Cc1cc(-c2nn(-c3ccccc3F)cc2CN2CCCC(CO)C2)c(C)s1 (stereo unspecified)	–	–	–	–	–	43
O=C(C[C@H]1C=C[C@@H](NC(=O)C2CCOCC2)[C@H](CO)O1)NCC1CCCCC1	–	–	–	·	–	–
Oc1ccc(C[C@H]2CN([C@@H](Cc3ccccc3)CN3CCC[C@@H]3CN3C(=S)NC[C@@H]3Cc3ccccc3)C(=S)N2CC2CCCCC2)cc1	–	–	–	·	·	–
Oc1ccc(C[C@H]2CNC(=S)N2CC2CCCN2C[C@H](Cc2ccc(O)cc2)N2C[C@H](Cc3ccc(O)cc3)N(CC3CCCCCC3)C2=S)cc1 (stereo partly specified)	–	–	–	–	17	–
O=C1NC[C@H](Cc2ccccc2)N(C[C@H]2CCCN2C[C@H](Cc2ccccc2)N2C[C@H](Cc3ccc(O)cc3)N(CCc3ccccc3)C(=O)C2=O)C1=O	–	–	–	42	–	–
